This passage reports Ki results from BindingDB's records for doi:10.1016/j.bmc.2003.11.015 (Bristol-Myers Squibb Pharmaceutical Research Institute, 2004).

Chains of the proteins cited; added tags and fusions are not shown.
UniProt P61169, whole entry: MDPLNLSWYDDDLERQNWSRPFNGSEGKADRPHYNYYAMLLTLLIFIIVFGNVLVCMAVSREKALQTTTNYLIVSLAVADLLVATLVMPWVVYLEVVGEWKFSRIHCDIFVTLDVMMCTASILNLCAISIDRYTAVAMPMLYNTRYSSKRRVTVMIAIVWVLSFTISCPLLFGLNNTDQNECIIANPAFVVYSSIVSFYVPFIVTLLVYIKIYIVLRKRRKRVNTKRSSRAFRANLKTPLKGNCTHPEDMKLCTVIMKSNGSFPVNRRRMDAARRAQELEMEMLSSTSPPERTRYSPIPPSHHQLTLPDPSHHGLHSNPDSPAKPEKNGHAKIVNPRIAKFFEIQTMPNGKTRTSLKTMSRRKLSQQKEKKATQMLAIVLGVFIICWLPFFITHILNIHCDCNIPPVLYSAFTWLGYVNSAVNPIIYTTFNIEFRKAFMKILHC

Where a name gives a salt, the structure may show the parent alone.

The test deals with D(2) dopamine receptor (Rattus norvegicus, UniProt P61169).

On to `CCCCC1NC[C@H]2c3ccc(O)c(O)c3Cc3cccc1c32` (mixture of isomers) [(+/-)-3-n-butyldinapsoline hydrobromide], for which the Ki – broadly, the equilibrium dissociation constant of an inhibitor or competing ligand from its target – was 93 nM.
